The values that follow come from patent publication US20260152497A1, “MIDAZO[4,5-c]QUINOLINE-4-AMINE COMPOUNDS AND CONJUGATES THEREOF, THEIR PREPARATION, AND THEIR [sequence] APPLICATIONS” (SANOFI, priority 2021, published 2026).

For the assay, the target named is T1, human TLR7 (Homo sapiens, UniProt Q9NYK1).
T1 construct: host or cells: HEK293 (HEK-Blue hTLR7); engineered variants additionally transfected with tumor antigen genes
T1 sequence (Q9NYK1 27-1049): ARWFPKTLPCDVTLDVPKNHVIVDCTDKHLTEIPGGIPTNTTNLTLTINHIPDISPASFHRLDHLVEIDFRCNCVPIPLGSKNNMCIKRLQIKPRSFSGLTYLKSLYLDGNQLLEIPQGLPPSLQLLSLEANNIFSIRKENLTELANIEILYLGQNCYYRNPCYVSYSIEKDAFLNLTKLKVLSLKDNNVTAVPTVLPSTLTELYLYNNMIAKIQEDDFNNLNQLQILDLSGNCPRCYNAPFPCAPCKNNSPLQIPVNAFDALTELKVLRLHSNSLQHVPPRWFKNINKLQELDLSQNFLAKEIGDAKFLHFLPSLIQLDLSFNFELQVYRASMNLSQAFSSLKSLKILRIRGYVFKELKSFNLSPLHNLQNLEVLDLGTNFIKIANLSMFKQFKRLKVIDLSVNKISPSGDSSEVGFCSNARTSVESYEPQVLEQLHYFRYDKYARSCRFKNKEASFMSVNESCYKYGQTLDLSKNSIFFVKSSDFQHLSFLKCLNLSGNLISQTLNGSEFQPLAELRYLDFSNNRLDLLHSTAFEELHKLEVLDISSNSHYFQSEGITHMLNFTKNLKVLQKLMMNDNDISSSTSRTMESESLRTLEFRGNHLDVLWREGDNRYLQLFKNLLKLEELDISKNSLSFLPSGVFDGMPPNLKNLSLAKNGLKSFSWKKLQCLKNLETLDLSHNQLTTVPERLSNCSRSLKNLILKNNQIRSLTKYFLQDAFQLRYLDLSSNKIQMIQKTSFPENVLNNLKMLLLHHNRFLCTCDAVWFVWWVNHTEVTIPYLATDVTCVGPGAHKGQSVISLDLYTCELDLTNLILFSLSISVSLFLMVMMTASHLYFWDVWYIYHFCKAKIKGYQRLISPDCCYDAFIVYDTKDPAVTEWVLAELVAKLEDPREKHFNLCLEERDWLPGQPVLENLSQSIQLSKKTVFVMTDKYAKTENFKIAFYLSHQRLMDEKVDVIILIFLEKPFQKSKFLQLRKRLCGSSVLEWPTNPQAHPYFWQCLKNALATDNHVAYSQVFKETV
The assay can be described thus: TLR7 pathway activation, parental HEK-Blue hTLR7 reporter cells (SEAP). The assay is classed as cell-based. Particulars: Table 1a, 96 hours, read-out: EC50 HEKBlue-hTLR7. How it is done: The below tests involving measuring the in vitro activity of some compounds of the disclosure on human TLR7 pathway were carried out using parental HEK-Blue™ hTLR7 cells and engineered tumor antigen-expressing HEK-Blue™ hTLR7 cells respectively as reporter cells.
HEK-Blue™ hTLR7 Cells (#hkb-htlr7) and HEK-Blue™ hTLR8 Cells (#hkb-htlr8) cells from InvivoGen and the engineered tumor antigen expressing cells were used according to the manufacturer's instructions. The HEK-Blue™ hTLR7 and HEK-Blue™ hTLR8 cells were obtained by co-transfection of the hTLR7 or hTLR8 gene in HEK293 cells and an optimized Secreted Embryonic Alkaline Phosphatase (SEAP) reporter gene which is placed under the control of the IFN-β minimal promoter fused to five NF-κB and AP-1-binding sites. The human tumor antigen expressing HEK-Blue™ hTLR7 and hTLR8 cells were obtained by transfection of the tumor antigen genes in the parental cells followed by a polyclonal selection to enrich in cells overexpressing the tumor antigen. Stimulation with a TLR7/8 ligand activates NF-kB and AP-1 which induce the production of SLAP. The cells are seeded in 96-well plate at 3.10E4 cells/well and incubated 24 hours at 37C, 5% CO2 before adding the conjugates to be evaluated. The cells are subsequently incubated with 3-fold serial dilutions of each of the compounds (0.01 nM to 1 μM) for 96 hours at 37° C., 5% CO2. Next, 20 μL of the supernatant is harvested and incubated with 200 μL of QUANTI-Blue™ Solution.

For “HER2_trastuzumab-PEG8-R848 ADC [Example 10]”, the 50% effective concentration (EC50) was greater than 1 µM.

As to “EGFR_cetuximab-PEG8-R848 ADC [Example 11]”, the EC50 is greater than 1 µM.

For “EGFR_cetuximab-PEG4-R848 ADC [Example 5]”, the EC50 was greater than 1 µM.

With “HER2_trastuzumab-PEG24-R848 ADC [Example 22]”, the EC50 was greater than 1 µM.

In the case of “EGFR_cetuximab-PEG12-R848 ADC [Example 17]”, the EC50 is greater than 1 µM.

Take “HER2_trastuzumab-PEG4-R848 ADC [Example 4]”: the concentration for a half-maximal effect (EC50) was greater than 1 µM.

Take “HER2_trastuzumab-PEG12-R848 ADC [Example 16]”: the concentration for a half-maximal effect (EC50) was greater than 1 µM.
